Assay results as given in PubChem BioAssay AID1527 (The Scripps Research Institute Molecular Screening Center, 2009).
“And” between values parts separate entries of the source, which are not always exact repeats. Equal values may be shown once. This is a selection; strong and weak results do not stand in their true shares. The source made the active and inactive calls.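 Rule for the calls: active = inhibition above the mean of all tested compounds plus 3 SD, cutoff set per screening run (cut at about 7.5% in these data); inactive = the rest.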

Tested on: VIM-2 metallo-beta-lactamase (Pseudomonas aeruginosa)
Test: VIM-2 metallo-beta-lactamase inhibitors, primary screen, biochemical, epi-absorbance readout, Pseudomonas aeruginosa enzyme (AID 1527);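 note: red hydrolysis product quenches plate fluorescence so inhibitors raise well fluorescence; 0% = enzyme with DMSO and 100% = DMSO without enzyme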
Conditions: purified VIM-2, nitrocefin hydrolysis, epi-absorbance fluorescence; at 5.6 µM; active compounds read high

Row | Compound | inhibition
1 | Nc1cccc([As](=O)(O)c2ccccc2)c1 | inactive: -2.31%
2 | O=[As](O)(c1cccs1)c1cccs1 | inactive: -0.39%
3 | Cc1ccc(OCC(=O)OC2CN3CCC2CC3)cc1 (configuration not stated) | inactive: 0.45%
4 | O=P1(Nc2ccc(Br)cn2)COc2ccccc2OC1 | inactive: -0.07%
5 | O=P1(Nc2ncccn2)COc2ccccc2OC1 | inactive: -2.59%
6 | CN(C)C1(CNC(=O)c2ccc(S(C)(=O)=O)cc2)CCCCC1 | inactive: 1.37%
7 | O=C(/C=C/c1ccccc1)OC1CN2CCC1CC2 (configuration not stated) | inactive: -1.47%
8 | Cc1nn(-c2ccccc2)c2c1P(=O)(N1CCOCC1)N(C)C(c1ccccc1)=N2 (configuration not stated) | inactive: -1.84%
9 | CC1CCC(C(C)C)C(OP(=O)(Nc2ccccn2)c2ccccc2)C1 (configuration not stated) | inactive: -3.02%
10 | Cc1ccc(C(=O)OC2CN3CCC2CC3)cc1 (configuration not stated) | inactive: -1.34%
11 | CC(C)/C=N\N=C(\N)N[N+](=O)[O-] | inactive: -2.14%
12 | CN(C(=O)Cc1ccc(Cl)c(Cl)c1)[C@@H]1CCCC[C@H]1N1CCCC1 | inactive: -0.55%
13 | O=[As](O)(c1ccccc1Br)c1ccccc1Br | inactive: -0.13%
14 | CC1(CBr)Cn2c(nc3ccccc3c2=O)S1 (configuration not stated) | inactive: 0.27%
15 | Clc1n[nH]nc1-c1nn[nH][15n]1 | inactive: -3.72%
16 | CC(C)(C)C(=O)NC(Sc1ncccn1)C(Cl)(Cl)Cl (configuration not stated) | inactive: -3.17%
17 | O=P1(Nc2ccccn2)COc2ccccc2OC1 | inactive: -3.7%
18 | CCC1=CC2Cc3nc4ccc(Cl)cc4c(N)c3C(C1)C2 (configuration not stated) | inactive: 3.01%
19 | CCOP(=O)(NC(=NC(C)c1ccccc1)NC(C)c1ccccc1)OCC (configuration not stated) | inactive: -2.96%
20 | CCOP(=O)(Nc1ccc(C)cn1)OCC | inactive: -0.98%
21 | COc1cc(C2NCCC3(OCCO3)C2(C)C)cc(OC)c1OC (configuration not stated) | inactive: -3.82%
22 | CCOP(=O)(Nc1cccc2ccccc12)OCC | inactive: -2.11%
23 | Nc1cccc2c([As](=O)(O)O)cccc12 | active: 11%
24 | Cc1ccc(NCCc2c([N+](=O)[O-])cc([N+](=O)[O-])cc2[N+](=O)[O-])cc1 | inactive: -1.17%
25 | CCCOP(=S)(Nc1nc(N)cc(=O)[nH]1)OCCC | inactive: -1.97%
26 | Cc1cccc(OCC(=O)OC2CN3CCC2CC3)c1 (configuration not stated) | inactive: -1.4%

Row | Compound | inhibition
27 | O=[As](O)(c1cccc(O)c1)c1cccc(O)c1 | inactive: -1.83%
28 | O=C(OC1CN2CCC1CC2)c1ccc(Cl)cc1 (configuration not stated) | inactive: -0.94%
29 | O=[As](O)(O)c1cccnc1 | inactive: -0.93%
30 | COc1cc(C(=O)NCC2(N3CCOCC3)CCCCC2)cc(Cl)c1OC(C)C | inactive: -1.73%
31 | CS(=O)(=O)c1ccc(Cl)c(NC(=O)COC(=O)C(O)(c2ccccc2)c2ccccc2)c1 | inactive: 1.44%
32 | CCOP1(=S)c2c(C)nn(CCC#N)c2N=C(c2ccc(F)cc2)N1C (configuration not stated) | inactive: 0.47%
33 | O=[N+]([O-])c1ccc2c(c1)nnn2O | inactive: -2.38%
34 | Nc1ccccc1[As](=O)(O)c1ccccc1 | inactive: -2.23%
35 | O=C(O)COc1ccc([As](=O)(O)O)cc1[N+](=O)[O-] | inactive: -0.11%
36 | CCOP1(=S)c2c(C)nn(CCC#N)c2N=C(c2ccccc2F)N1C (configuration not stated) | inactive: -2.04%
37 | O=P(Nc1nccs1)(Oc1ccccc1)Oc1ccccc1 | inactive: -3.43%
38 | O=P(Nc1nccs1)(c1ccccc1)c1nc2ccccc2s1 (configuration not stated) | active: 7.9%
39 | CS(=O)(=O)c1cc([N+](=O)[O-])c2no[n+]([O-])c2c1 | inactive: -0.35%
40 | CC(C)NC(=O)NP(=O)(Oc1ccccc1)Oc1ccccc1 | inactive: -2.22%
41 | CCN(CC)C(=S)SC(NC=O)C(Cl)(Cl)Cl (configuration not stated) | inactive: -1.91%
42 | O=[N+]([O-])c1cc([N+](=O)[O-])c(-c2ccn[nH]2)s1 | inactive: -2.29%
43 | ClCCSc1nnc(-c2cccnc2)o1 | inactive: -1%
44 | CC(C)c1ccc(OP(=O)(Nc2ccccn2)Oc2ccccc2F)cc1 (configuration not stated) | inactive: -1.76%
45 | Cc1ccc(OP(=O)(Nc2ccc([N+](=O)[O-])cn2)Oc2ccc(C)cc2)cc1 | inactive: -2.11%
46 | Cc1ccc2nc3c(c(C)c2c1)CC(C(Cl)Cl)S3 (configuration not stated) | inactive: 1.81%
47 | O=[As](O)(c1ccc(O)cc1)c1ccccc1O | inactive: -0.27%
48 | C[As](=O)(O)c1cccc(C(=O)O)c1 | inactive: 0.32%
49 | COc1ccc(N/C(=N/P(=O)(N2CCOCC2)N2CCOCC2)N2CCOCC2)cc1 | inactive: -2.45%
50 | COc1ccc2nc(NP(=O)(c3ccccc3)c3ccccc3)sc2c1 | inactive: -4.09%
51 | COc1cc(I)ccc1[As](=O)(O)O | inactive: -1.47%
52 | Cc1c2c(nc3ccccc13)SC(C(Cl)Cl)C2 (configuration not stated) | inactive: -0.34%

Row | Compound | inhibition
53 | O=C(OC1CN2CCC1CC2)C12CC3CC(CC(C3)C1)C2 (configuration not stated) | inactive: -1.34%
54 | Cc1cc(=O)[nH]c(N[N+](=O)[O-])n1 | inactive: -1.37%
55 | CCC(C)N(CC(C)C)C(=S)SC(NC(C)=O)C(Cl)(Cl)Cl (configuration not stated) | inactive: -2.61%
56 | O=C(OC1CN2CCC1CC2)c1cccc([N+](=O)[O-])c1 (configuration not stated) | inactive: 1.07%
57 | CCOC(=O)c1ccc(NC(=O)C(C)(CCl)SC)cc1 (configuration not stated) | inactive: -3.4%
58 | O=C(COc1ccccc1)OC1CN2CCC1CC2 (configuration not stated) | inactive: 0.98%
59 | O=C(Nc1ccncc1[N+](=O)[O-])c1ccc([N+](=O)[O-])cc1[N+](=O)[O-] | inactive: 1.06%
60 | COP1(=S)c2c(C)nn(CCC#N)c2N=C(c2ccc(F)cc2)N1C (configuration not stated) | inactive: -4.79%
61 | O=P(Nc1ccccn1)(c1cccc2ccccc12)c1cccc2ccccc12 | inactive: -2.93%
62 | Cc1cc(SC(NC=O)C(Cl)(Cl)Cl)ncn1 (configuration not stated) | inactive: -5.11%
63 | O=[N+]([O-])c1ccc(Nc2ccc(Oc3ccc([N+](=O)[O-])cc3[N+](=O)[O-])cc2)c([N+](=O)[O-])c1 | inactive: -3.78%
64 | CCOC(=O)Nc1cccc([As](=O)(O)O)c1 | inactive: -1.6%
65 | CCCCOc1ccc(C(=O)NCC2(N3CCCCC3)CCCCC2)cc1OC | inactive: -1.72%
66 | Cc1cc(SC(NC(=O)c2ccccc2)C(Cl)(Cl)Cl)nc(C(C)C)n1 (configuration not stated) | inactive: -2.72%
67 | CCOC(=O)Nc1ccc([As](=O)(O)O)c(O)c1 | inactive: 0.5%
68 | O=C(O)CNc1ccc([As](=O)(O)O)cc1 | inactive: -1%
69 | O=[N+]([O-])c1cccc(NC2=NCC(CBr)S2)c1 (configuration not stated) | inactive: -3.34%
70 | O=[N+]([O-])c1ncn(CCn2ncnc2[N+](=O)[O-])n1 | inactive: -1.55%
71 | CC(C)(C)C(=O)NC(Sc1ccncn1)C(Cl)(Cl)Cl (configuration not stated) | inactive: -1.68%
72 | O=C(Nc1cc([As](=O)(O)O)ccc1O)c1ccccc1 | inactive: -2.09%
73 | CC1CCN(C(=O)Oc2c(Cl)cc(Cl)c3cccnc23)CC1 | inactive: 0.16%
74 | CC(C)=N/N=C(\N)N[N+](=O)[O-] | inactive: 0.19%
75 | CN(C)C(=O)OCCc1n(C)cc[n+]1C | inactive: -0.43%
76 | CCN(/C(=N/P(=O)(N1CCOCC1)N1CCOCC1)N1CCOCC1)c1ccc(OC)cc1 | inactive: -0.5%
77 | Nc1ccc([As](=O)(O)c2ccc(N)cc2)cc1 | inactive: 3.12%
78 | C[N+]1=C2C=CC=CC=C2SC12C([N+](=O)[O-])=CC([N+](=O)[O-])=C[C-]2[N+](=O)[O-] (configuration not stated) | inactive: 6.54%

Row | Compound | inhibition
79 | Cc1ccc(NP(=O)(Oc2ccccc2)Oc2ccccc2)nc1 | inactive: 1.31%
80 | CCc1nc2c(n1)c1c(non1O)c1c2no[n+]1[O-] | inactive: -1.54%
81 | O=[N+]([O-])c1cc([N+](=O)[O-])c(CCNc2ccccc2)c([N+](=O)[O-])c1 | inactive: -4.45%
82 | O=[N+]([O-])c1cccc2n[nH]nc12 | inactive: -0.29%
83 | CC(=O)N1C2C3N(C(C)=O)C1C1N(C(C)=O)C(C(N1C(C)=O)N3C(C)=O)N2C(C)=O | inactive: -3.89%
84 | COc1ccc(C2=NCC(CBr)S2)cc1 (configuration not stated) | inactive: 0.41%
85 | Oc1ccccc1CNc1ccccn1 | inactive: -1.34%
86 | O=C(NC(Sc1ccncn1)C(Cl)(Cl)Cl)c1ccccc1 (configuration not stated) | inactive: -1.4%
87 | Cc1c2non([O-])c-2c(C)[n+](=O)[n+]1[O-] | inactive: -2.96%
88 | Nc1cc(N)c2nonc2c1[N+](=O)[O-] | inactive: -3.62%
89 | CC(C)CC(=O)NC(Sc1ccc(Cl)cc1)C(Cl)(Cl)Cl (configuration not stated) | inactive: -1.51%
90 | CN1CCCC(OC(=O)C(c2ccccc2)c2ccccc2)C1 (configuration not stated) | inactive: 1%
91 | Clc1ccc(Cl)c(NC2=NCC(CBr)S2)c1 (configuration not stated) | inactive: -1.83%
92 | COc1ccccc1OP(=O)(Nc1ccc(C)cn1)Oc1ccccc1OC | inactive: 1.76%
93 | Cc1ccc(OP(=O)(Nc2nccs2)Oc2ccc(C)cc2)cc1 | inactive: -2.95%
94 | Cc1ccc(N/C(=N/P(=O)(N2CCOCC2)N2CCOCC2)N2CCOCC2)cc1 | inactive: -0.55%
95 | NC(=O)c1cc([N+](=O)[O-])cc([N+](=O)[O-])c1N | inactive: 2.05%
96 | Nc1cccc2ccc([As](=O)(O)O)cc12 | inactive: -0.18%
97 | CCN(N=Nc1nonc1N)c1nonc1N | inactive: -2.71%
98 | O=[N+]([O-])c1cc([N+](=O)[O-])c(CCN2CCOCC2)c([N+](=O)[O-])c1 | inactive: 0.15%
99 | Cc1cc(SC(NC(=O)c2ccc(F)cc2)C(Cl)(Cl)Cl)ncn1 (configuration not stated) | inactive: -3.04%
100 | CCOP(=O)(Nc1ccccc1)OCC | inactive: -2.02% and inactive: -3.15%
101 | Cc1ccc(NP(=O)(Oc2ccccc2F)Oc2ccccc2F)nc1 | inactive: -2.81%
102 | O=P(Nc1nc2ccc(Cl)cc2s1)(c1ccccc1)c1ccccc1 | inactive: -3.11%
